The source of these data is patent publication US7008636B2, “2,3,5-substituted biphenyls useful in the treatment of insulin resistance and hyperglycemia” (Wyeth, priority 1998, dated 2006).

Chains of the proteins cited; added tags and fusions are not shown. Lines headed by an entry give the natural chain unless they say otherwise; changes in a name come on top.
UniProt P18031: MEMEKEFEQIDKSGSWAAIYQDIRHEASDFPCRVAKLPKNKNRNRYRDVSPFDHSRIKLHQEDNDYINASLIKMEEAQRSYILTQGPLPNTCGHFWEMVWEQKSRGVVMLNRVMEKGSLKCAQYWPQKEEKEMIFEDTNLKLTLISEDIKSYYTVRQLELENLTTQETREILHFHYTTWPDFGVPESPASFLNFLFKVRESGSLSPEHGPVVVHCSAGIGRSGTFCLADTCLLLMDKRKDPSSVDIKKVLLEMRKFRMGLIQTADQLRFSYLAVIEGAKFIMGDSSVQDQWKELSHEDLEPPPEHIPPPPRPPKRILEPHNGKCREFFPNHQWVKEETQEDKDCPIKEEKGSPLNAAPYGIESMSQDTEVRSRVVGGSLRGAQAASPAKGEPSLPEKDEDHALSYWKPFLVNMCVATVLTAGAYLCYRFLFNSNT

This experiment has as its target recombinant, human protein tyrosine phosphatase (PTP) 1B (hPTP1B) (Homo sapiens, UniProt P18031). Briefly: Inhibition of tri-phosphorylated insulin receptor dodecaphosphopeptide dephosphorylation by hPTP1B. The format is biochemical. As to conditions: 50 μM IR triphosphopeptide substrate, 5 min preincubation and 5 min reaction at 37° C., malachite green-ammonium molybdate phosphate detection.

On to Phenylarsine oxide, for which the IC50 was found to be 39.7 µM.

Turning to “2-Hydroxy-4-[5′-(8-phenyl-octylcarbamoyl)-3,3″-bis-trifluoromethyl-[1,1′:3′1″]terphenyl-2′yloxymethyl]-benzoic acid”, the IC50 turned out to be 0.125 µM.

Broadly, the IC50 is the concentration that inhibits the measured activity by half.
